Source: patent US20120189670A1, “PHARMACEUTICAL COMPOSITIONS AND FORMULATIONS INCLUDING INHIBITORS OF THE PLECKSTRIN HOMOLOGY DOMAIN AND METHODS FOR USING SAME” (priority 2009, published 2012)

Amino acid sequences for entries named in this document (tags omitted).
UniProt P31750, whole entry: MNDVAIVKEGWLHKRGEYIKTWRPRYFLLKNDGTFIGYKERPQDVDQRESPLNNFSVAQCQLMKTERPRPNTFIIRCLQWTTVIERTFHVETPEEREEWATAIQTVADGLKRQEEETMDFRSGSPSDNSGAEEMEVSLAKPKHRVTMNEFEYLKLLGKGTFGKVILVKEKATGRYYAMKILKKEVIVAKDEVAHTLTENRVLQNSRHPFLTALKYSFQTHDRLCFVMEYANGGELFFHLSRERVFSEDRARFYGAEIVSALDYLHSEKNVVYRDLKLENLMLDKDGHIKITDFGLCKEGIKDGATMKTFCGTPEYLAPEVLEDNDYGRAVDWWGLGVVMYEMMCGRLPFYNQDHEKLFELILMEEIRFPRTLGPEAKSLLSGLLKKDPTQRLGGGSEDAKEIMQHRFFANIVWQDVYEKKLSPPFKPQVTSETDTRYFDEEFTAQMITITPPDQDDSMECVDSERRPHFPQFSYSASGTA

Assays:
[1] = molecular target: AKT (phospho-Ser^473 AKT) in NIH3T3 cells (Mus musculus, UniProt P31750); assay: Inhibition of phospho-Ser473 AKT in NIH3T3 cells; assay type: cell-based; conditions: read-out: AKT inhibition (IC50 μM) NIH3T3
Protocol: […]. […] AKT activity was measured by Western blotting using anti-phosphoSer437 AKT antibody. Downstream targets of AKT were detected also by Western blotting using specific anti-phospho antibodies and anti-actin was used as a loading control. Compounds 331 and 335 appear to inhibit both AKT phosphorylation and GSK3 phosphorylation downstream.

Solubility (Table 11) = assay type: physicochemical

With `CC1=NN(C(=O)c2ccc(Cl)cc2)C(O)C1/N=N/c1ccc(S(=O)(=O)Nc2ncccn2)cc1` (centres unmarked) the IC50 [1] was 3 µM and the Solubility (Solubility (Table 11)) was <0.1 µM.
